# Screen size: about 340,000 compounds; about 1,700 (0.5%) were called active. All entries are inconclusive by the source's own rule. Clear calls are listed elsewhere. No stated cut-off is given here; in the data, active means activity change below about -65%; inconclusive means mostly about -30% to -63%; inactive means weaker than that.
# Test system: CtBP / adenovirus E1A interaction (AlphaScreen)
# Assay: qHTS Assay for Inhibitors of the CtBP/E1A Interaction
# Conditions: AlphaScreen GST-E1A/His-CtBP binding, 1536-well; active compounds read low
# From the text: Carboxyl-terminal binding protein (CtBP) is a co-repressor for many transcription factors. […] Our studies have shown that CtBP is overexpressed in multiple human cancers, including lung, breast, and head and neck cancers. In particular, it is over-expressed in 50% of primary lung cancer and 90% of metastatic lesions. CtBP suppresses epithelial-specific genes as well as genes critical for apoptosis, providing the underlying molecular mechanism for its role in tumorigenesis. […] Based on the above data, we hypothesize that 1) CtBP suppresses the pro-apoptotic and epithelial genes, therefore overexpressed CtBP in human cancer cells increases EMT and cancer survival; 2) decreasing CtBP's function represents a targeted therapy for lung cancer and potentially multiple cancer types. As a co-repressor, CtBP binds to E1A and other transcription factors through a conserved peptide motif to carry out its action. Inhibiting this interaction using small molecules can potentially serve as effective cancer therapeutics.
# To this end, we have developed a homogenous AlphaScreen assay targeting the CtBP/E1A interaction. We performed a large scale HTS of the Molecular Libraries Small Molecule Repository (MLSMR) to identify inhibitors of the CtBP/E1A interaction as potential anti-cancer therapeutics. Compounds identified can also be used as chemical probes to better understand the biological functions of CtBP.
# NIH Chemical Genomics Center [NCGC]
# NIH Molecular Libraries Probe Centers Network [MLPCN]
# Assay Submitter (PI): Rui Zhao, University of Colorado Denver
# The first step of the 5uL AlphaScreen assay is to dispense assay buffer (50 mM Tris, pH 8.0, 300 mM NaCl, 0.05% BSA, 0.02% Tween 20, 1 mM TCEP) into a Greiner 1536 white solid bottom microtiter plate (789175-F). Five microliters is added to Column 1, 4 uL is added to Column 2 and 3 uL is added to Columns 3 through 48. A 5X protein solution (125 nM GST-E1A protein + 125 nM His-tagged CtBP protein) is mixed and 1 uL is dispensed to Columns 3-48. […] The plate is read using a Perkin Elmer Envision using an AlphaScreen protocol.
# On the % scale 0 is the no-effect control and ±100 the full control effect.
row,Compound,activity change
1,Cc1ccc(NCCc2c([N+](=O)[O-])cc([N+](=O)[O-])cc2[N+](=O)[O-])cc1,inconclusive: -45.8%
2,Cc1ccc(S(=O)(=O)N(CCCN)CCCc2c(C)nc(N)[nH]c2=O)cc1,inconclusive: -31.5%
3,c1ccc(-c2nn[nH]n2)c(-c2nn[nH]n2)c1,inconclusive: -61%

# Reference: PubChem BioAssay AID651724 (National Center for Advancing Translational Sciences (NCATS), 2012)
